Reference: ChEMBL document CHEMBL3864151, “Discovery of imidazopyridazines as potent Pim-1/2 kinase inhibitors” (Bioorg Med Chem Lett, 2016)

Amino acid sequences for entries named in this document (tags omitted). A change or cut given only in a name is not applied to a line headed by its entry.
UniProt Q9P1W9: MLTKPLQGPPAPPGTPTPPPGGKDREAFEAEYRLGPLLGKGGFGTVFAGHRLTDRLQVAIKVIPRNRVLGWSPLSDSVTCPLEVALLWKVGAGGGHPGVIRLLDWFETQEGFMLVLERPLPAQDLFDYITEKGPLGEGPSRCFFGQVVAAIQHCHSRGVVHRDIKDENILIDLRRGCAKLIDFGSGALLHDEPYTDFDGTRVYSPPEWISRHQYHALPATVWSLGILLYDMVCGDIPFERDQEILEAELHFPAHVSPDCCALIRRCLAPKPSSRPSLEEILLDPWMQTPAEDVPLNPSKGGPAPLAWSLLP
UniProt P11309, whole entry: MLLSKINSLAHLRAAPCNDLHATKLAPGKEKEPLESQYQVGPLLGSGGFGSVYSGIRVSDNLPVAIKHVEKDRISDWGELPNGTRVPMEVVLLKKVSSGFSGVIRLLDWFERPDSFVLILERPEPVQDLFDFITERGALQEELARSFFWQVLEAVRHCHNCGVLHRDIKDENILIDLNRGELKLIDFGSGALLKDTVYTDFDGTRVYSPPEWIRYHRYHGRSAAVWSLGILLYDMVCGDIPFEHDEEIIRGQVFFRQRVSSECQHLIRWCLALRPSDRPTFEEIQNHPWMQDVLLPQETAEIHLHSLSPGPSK

Key:
[1] = biological target: Serine/threonine-protein kinase pim-2 (Homo sapiens, UniProt Q9P1W9); experiment: Inhibition of recombinant Pim2 (unknown origin) by electrochemiluminescence assay
[2] = biological target: Serine/threonine-protein kinase pim-1 (Homo sapiens, UniProt P11309); experiment: Inhibition of recombinant Pim1 (unknown origin) by electrochemiluminescence assay
[3] = biological target: Serine/threonine-protein kinase PIM (Homo sapiens, UniProt P11309+Q9P1W9+Q86V86); experiment: Inhibition of Pim1/2 in human KMS-12 cells assessed as decrease in BAD phosphorylation at Ser112 by Western blot method; assay type: cell-based
[4] = biological target: Serine/threonine-protein kinase pim-3 (Homo sapiens, UniProt Q86V86); experiment: Inhibition of Pim3 (unknown origin)
[5] = Intrinsic clearance in human liver microsomes at 1 uM after 30 mins by LC-MS HRMS analysis; assay type: ADME; conditions: read-out: CLH

IC50 [1] [nM]	microsomal CLint at 1 µM [5] [µL/min/mg]	SMILES	IC50 [2] [nM]	IC50 [3] [nM]	IC50 [4] [nM]
0.29	–	C[C@@H]1[C@@H](N)CCCN1c1ccncc1Nc1ncc2ccc(-c3c(F)cccc3F)nn12	–	–	–
5.4	102	C[C@H]1[C@@H](N)CCCN1c1ccncc1Nc1ncc2ccc(-c3c(F)cccc3F)nn12	–	–	–

More lines, now with the values behind:

SMILES	IC50 [1] [nM]	microsomal CLint at 1 µM [5] [µL/min/mg]	IC50 [2] [nM]	IC50 [3] [nM]	IC50 [4] [nM]
C[C@H]1C[C@H](N)CN(c2ccncc2Nc2ncc3ccc(-c4c(F)cccc4F)nn23)C1	0.79	–	–	–	–
C[C@@H]1C[C@H](N)CN(c2ccncc2Nc2ncc3ccc(-c4c(F)cccc4F)nn23)C1	0.094	–	0.024	28	0.027
C[C@@H]1CC[C@H](N)CN1c1ccncc1Nc1ncc2ccc(-c3c(F)cccc3F)nn12	0.31	–	0.021	49	–
